Results: ChEMBL document CHEMBL1129436, “Novel peptidyl alpha-keto amide inhibitors of calpains and other cysteine proteases” (J Med Chem, 1996)

Target: Cathepsin B (Homo sapiens, UniProt P07858)
Assay: Inhibition of human cathepsin B
Procedure, shortened: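 Bovine or human cathepsin B, assayed in 20 mM sodium acetate, pH 5.2, with 0.5 mM dithiothreitol and 2% DMSO. The two enzyme sources were used interchangeably. Ki was taken from Dixon plots, with triplicate assays plotted as 1/v versus inhibitor concentration.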

**Q.** Which Ki does the source give for `CCC(NC(=O)C(CC(C)C)NC(=O)C(c1ccccc1)c1ccccc1)C(=O)C(=O)NCc1ccccn1` (stereo unspecified) here?
**A.** 2800 nM
